# In patent publication US20060172019A1 (priority 2003, published 2006):
# Protein sequences, listed by entry. Tags and fused reporters are not part of them.
# UniProt P34972, whole entry: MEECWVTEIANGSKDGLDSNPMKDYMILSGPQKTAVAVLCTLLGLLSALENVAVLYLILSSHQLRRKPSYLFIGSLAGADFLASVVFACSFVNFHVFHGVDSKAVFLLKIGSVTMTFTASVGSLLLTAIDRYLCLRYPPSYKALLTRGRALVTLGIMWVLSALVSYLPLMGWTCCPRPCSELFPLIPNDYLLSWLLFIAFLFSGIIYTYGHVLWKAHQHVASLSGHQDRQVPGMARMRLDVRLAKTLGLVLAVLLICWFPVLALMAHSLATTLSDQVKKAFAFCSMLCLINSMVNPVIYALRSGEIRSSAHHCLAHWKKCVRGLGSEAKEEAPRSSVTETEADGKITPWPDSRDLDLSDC
# Where two headings read alike, the source gives them in different places.
# Legend:
# [1] = system: J774 murine macrophage cells; assay: Alamar Blue J774 murine macrophage viability assay; assay type: cell-based
# [2] = system: rabbit osteoclasts; assay: Rabbit osteoclast culture; assay type: cell-based
# [3] = system: osteoclasts; assay: cells; assay type: cell-based, mice; settings: Mus musculus, Osteoclast, read-out: IC50, inhibition of osteoclast function and bone resorption
# Description: Osteoclast formation and activity was studied using an adaptation (see, e.g., van't Hof et al., 1997) of the osteoblast-bone marrow co-culture assay originally described previously (see, e.g., Takahashi et al., 1988). This is another experimental model system to screen for osteoclast-inhibitor and osteoclast-stimulatory agents.
# Osteoblasts were isolated from the calvarial bones of 2-day-old mice by sequential collagenase digestion (type I collagenase, Sigma) and cultured in αMEM supplemented with 10% FCS and penicillin and streptomycin at 37° C. in 5% CO2. Bone marrow cell populations containing osteoclast precursors were isolated from the long bones of 3-5 month old mice and erythrocytes were removed by Ficoll Hypaque density gradient centrifugation. The resulting bone marrow cells were washed with PBS and resuspended in culture medium.
# Osteoblasts and bone marrow cells were plated at 10^4 cells/well and 2×10^5 cells/well, respectively, in 96-well plates in 150 μL of αMEM supplemented with 10% FCS, antibiotics and 10 nM 1,25-dihydroxyvitamin D3. Test substances were added on day 7 and the cultures were terminated on day 10. At the end of the culture period, osteoclasts were identified by TRAcP staining and resorption pits were quantified by reflected light microscopy, as described above.
# [4] = system: mouse osteoblasts; assay: Mouse osteoblast culture (Alamar Blue); assay type: cell-based; settings: 72 hours, n=3
# [5] = system: ovariectomy induced bone loss; assay: Ovariectomy induced bone loss, peripheral quantitative computed tomography; assay type: in vivo, C57/BL6 mice; settings: 6 mg/kg daily injection, 21 days, pQCT, tibia
# [6] = biological target: CB2 receptor (Homo sapiens, UniProt P34972); settings: Table 1; cited from earlier work
smiles,measurement,setting,value
Cc1c(C(=O)NN2CCCCC2)nn(-c2ccc(Cl)cc2Cl)c1-c1ccc(I)cc1 [AM251],IC50,"[1]; Mus musculus, J774, 72 h, read-out: IC50, J774 survival",~5 µM
same,IC50,"[1]; Mus musculus, J774, read-out: IC50 in J774 cells",5 µM
same,IC50,"[1]; read-out: IC50, J774 survival",~7 µM
same,survival and resorptive activity of authentic rabbit osteoclasts,[2],inhibit
same,survival of tartrate resistant acid phosphatase positive multinucleated osteoclasts (TRAcP MNC),"[2]; 10 μM (p<0.03) and 20 μM (p<0.01), 48 hours",inhibited
same,IC50,[3],~5 µM
same,osteoblast survival,[4],highly potent
same,"ovariectomy-induced bone loss, trabecular density",[5],very effective at reversing the bone loss
same,Ki,[6],2000 nM
